Results on one compound are retold here after PMC4546118 (SpringerPlus, 2015).

The series in a line: Pharmacokinetics of VCM after intravenous administration to control and PN rats. Particulars: control rats, 5 mg/kg intravenous bolus, two-compartment model, plasma LC/MS/MS, mean of n = 4.

Consider `CN[C@H](CC(C)C)C(=O)N[C@H]1C(=O)N[C@@H](CC(N)=O)C(=O)N[C@H]2C(=O)N[C@H]3C(=O)N[C@H](C(=O)N[C@H](C(=O)O)c4cc(O)cc(O)c4-c4cc3ccc4O)[C@H](O)c3ccc(c(Cl)c3)Oc3cc2cc(c3O[C@@H]2O[C@H](CO)[C@@H](O)[C@H](O)[C@H]2O[C@H]2C[C@](C)(N)[C@H](O)[C@H](C)O2)Oc2ccc(cc2Cl)[C@H]1O` [VCM, vancomycin], for which the “t1/2β (elimination half-life)” value was determined as 1.26 h.
